From ChEMBL document CHEMBL5137027, “Discovery of quinazoline derivatives CZw-124 as a pan-TRK inhibitor with potent anticancer effects in vitro and in vivo” (Eur J Med Chem, 2022)

Protein sequences, listed by entry. Tags and fused reporters are not part of them. Lines headed by an entry give the natural chain unless they say otherwise; changes in a name come on top.
UniProt O14965: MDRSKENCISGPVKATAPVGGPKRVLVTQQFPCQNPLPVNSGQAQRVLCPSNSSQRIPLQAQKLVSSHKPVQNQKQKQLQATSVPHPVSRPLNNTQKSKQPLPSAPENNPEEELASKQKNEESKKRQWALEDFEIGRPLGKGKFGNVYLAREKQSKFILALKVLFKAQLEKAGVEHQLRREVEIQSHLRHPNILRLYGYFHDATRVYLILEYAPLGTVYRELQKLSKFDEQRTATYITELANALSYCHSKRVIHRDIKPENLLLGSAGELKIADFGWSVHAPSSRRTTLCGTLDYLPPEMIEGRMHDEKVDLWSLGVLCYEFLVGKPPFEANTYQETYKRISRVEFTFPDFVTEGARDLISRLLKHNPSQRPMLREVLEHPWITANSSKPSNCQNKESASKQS
UniProt Q06187: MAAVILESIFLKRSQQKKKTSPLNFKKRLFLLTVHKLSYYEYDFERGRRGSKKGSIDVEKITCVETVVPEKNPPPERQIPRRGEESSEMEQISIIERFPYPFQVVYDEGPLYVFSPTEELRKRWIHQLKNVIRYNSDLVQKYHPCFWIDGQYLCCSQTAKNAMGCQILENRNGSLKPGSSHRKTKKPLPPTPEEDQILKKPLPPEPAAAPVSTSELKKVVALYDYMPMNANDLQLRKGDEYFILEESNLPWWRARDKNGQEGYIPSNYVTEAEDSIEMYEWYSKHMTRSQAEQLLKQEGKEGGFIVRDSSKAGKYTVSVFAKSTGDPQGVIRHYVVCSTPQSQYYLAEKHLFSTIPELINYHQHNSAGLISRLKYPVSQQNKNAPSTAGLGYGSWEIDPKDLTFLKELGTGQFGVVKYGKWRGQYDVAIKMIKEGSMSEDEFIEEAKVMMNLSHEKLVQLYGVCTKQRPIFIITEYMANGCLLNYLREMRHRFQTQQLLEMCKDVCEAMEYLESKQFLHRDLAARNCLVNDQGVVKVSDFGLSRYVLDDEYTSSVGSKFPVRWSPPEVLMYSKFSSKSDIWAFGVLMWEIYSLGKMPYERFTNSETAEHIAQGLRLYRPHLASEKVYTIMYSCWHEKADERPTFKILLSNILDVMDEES
UniProt Q9UHD2: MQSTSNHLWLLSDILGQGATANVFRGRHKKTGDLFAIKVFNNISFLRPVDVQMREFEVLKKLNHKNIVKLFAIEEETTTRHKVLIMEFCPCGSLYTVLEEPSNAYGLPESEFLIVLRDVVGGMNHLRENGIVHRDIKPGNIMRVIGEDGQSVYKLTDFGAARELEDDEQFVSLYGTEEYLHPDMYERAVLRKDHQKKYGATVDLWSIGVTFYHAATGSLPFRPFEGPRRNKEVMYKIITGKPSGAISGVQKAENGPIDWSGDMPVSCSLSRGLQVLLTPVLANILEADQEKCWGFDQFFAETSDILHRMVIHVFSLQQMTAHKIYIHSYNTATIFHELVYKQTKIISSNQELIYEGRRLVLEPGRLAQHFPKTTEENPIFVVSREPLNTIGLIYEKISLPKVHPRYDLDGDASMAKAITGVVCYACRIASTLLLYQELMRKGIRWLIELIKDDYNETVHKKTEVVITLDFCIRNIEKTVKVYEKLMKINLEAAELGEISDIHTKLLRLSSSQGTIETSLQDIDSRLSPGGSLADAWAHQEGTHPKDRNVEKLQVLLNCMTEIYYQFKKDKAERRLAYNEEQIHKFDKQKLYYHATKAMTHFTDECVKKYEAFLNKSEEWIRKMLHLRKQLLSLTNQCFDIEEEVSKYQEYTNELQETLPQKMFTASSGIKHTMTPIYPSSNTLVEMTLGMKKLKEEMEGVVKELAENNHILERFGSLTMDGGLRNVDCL
UniProt O75716, whole entry: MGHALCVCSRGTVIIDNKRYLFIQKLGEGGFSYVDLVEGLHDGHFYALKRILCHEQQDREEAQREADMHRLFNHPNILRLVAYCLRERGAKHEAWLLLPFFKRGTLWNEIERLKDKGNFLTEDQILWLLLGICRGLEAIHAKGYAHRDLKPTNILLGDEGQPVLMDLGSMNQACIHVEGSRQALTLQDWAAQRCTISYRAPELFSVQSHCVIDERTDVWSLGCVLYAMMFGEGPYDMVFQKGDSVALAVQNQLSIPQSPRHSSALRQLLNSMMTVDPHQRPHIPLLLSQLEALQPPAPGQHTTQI
UniProt Q14680: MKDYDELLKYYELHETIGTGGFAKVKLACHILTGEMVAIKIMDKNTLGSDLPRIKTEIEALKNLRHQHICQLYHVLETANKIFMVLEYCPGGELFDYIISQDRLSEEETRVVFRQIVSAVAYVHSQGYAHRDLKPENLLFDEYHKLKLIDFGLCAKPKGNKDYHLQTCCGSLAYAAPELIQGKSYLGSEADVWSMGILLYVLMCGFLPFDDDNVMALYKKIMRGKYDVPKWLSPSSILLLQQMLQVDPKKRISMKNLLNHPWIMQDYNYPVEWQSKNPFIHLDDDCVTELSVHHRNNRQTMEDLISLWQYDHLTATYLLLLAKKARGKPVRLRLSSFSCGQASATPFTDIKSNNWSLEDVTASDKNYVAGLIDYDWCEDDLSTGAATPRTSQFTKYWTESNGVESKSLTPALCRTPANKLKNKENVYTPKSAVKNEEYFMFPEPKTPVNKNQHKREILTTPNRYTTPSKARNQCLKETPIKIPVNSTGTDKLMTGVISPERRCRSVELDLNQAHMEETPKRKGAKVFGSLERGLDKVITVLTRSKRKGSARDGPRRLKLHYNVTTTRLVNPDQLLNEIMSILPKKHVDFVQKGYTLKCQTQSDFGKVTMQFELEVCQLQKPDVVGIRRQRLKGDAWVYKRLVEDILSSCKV
UniProt Q9UM73: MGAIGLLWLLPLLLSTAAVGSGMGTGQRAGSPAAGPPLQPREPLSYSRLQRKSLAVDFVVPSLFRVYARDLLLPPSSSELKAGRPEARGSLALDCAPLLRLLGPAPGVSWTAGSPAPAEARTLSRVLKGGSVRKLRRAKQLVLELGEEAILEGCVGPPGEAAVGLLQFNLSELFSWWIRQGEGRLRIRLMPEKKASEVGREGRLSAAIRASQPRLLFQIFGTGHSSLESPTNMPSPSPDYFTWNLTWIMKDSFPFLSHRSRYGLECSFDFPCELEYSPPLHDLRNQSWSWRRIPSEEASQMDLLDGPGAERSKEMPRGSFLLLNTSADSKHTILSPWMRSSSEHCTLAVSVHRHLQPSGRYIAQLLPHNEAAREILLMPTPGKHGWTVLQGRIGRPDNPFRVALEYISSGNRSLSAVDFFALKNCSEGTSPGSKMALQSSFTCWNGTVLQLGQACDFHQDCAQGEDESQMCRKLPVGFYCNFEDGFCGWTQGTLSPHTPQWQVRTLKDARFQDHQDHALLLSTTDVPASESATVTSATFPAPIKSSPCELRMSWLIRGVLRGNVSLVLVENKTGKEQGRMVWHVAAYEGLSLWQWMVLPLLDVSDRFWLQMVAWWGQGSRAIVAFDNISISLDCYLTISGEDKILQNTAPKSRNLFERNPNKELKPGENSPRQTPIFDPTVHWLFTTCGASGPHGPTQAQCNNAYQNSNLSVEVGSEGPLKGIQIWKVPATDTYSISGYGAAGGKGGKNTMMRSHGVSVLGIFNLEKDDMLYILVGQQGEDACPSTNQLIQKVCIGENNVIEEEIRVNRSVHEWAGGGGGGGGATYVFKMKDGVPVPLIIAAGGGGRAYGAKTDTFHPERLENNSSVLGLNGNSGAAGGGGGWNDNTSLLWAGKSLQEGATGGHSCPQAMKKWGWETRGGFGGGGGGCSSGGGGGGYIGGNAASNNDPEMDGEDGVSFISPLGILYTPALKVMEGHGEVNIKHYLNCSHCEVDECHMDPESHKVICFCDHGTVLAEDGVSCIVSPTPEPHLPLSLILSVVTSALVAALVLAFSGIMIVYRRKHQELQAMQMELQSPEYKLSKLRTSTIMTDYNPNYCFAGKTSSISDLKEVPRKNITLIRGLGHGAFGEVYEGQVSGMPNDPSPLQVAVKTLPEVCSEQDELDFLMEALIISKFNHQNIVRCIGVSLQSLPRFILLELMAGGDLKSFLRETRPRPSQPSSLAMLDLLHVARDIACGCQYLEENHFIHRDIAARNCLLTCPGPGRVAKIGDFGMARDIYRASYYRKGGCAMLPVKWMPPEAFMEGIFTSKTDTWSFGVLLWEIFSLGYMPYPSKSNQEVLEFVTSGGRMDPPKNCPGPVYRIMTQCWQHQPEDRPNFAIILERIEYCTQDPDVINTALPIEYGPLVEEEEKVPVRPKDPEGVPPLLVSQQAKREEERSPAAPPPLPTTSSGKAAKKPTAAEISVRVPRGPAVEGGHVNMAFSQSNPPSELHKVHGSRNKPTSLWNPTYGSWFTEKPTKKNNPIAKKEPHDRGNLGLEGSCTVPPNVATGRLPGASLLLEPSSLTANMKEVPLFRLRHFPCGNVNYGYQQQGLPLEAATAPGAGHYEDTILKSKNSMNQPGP
UniProt O96017, whole entry: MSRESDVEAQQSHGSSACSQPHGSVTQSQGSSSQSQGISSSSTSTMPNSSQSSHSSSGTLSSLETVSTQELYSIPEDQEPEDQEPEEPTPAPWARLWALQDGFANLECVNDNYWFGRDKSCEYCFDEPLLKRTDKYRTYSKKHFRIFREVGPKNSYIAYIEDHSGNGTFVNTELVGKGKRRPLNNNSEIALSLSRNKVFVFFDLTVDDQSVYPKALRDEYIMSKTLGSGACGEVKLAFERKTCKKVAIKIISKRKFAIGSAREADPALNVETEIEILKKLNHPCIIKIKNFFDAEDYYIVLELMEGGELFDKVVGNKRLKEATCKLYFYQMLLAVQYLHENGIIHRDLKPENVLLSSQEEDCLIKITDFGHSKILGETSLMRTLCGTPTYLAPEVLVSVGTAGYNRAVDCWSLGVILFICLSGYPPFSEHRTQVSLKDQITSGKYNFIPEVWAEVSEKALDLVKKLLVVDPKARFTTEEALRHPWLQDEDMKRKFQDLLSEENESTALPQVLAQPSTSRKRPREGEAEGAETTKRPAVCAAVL
UniProt P53667: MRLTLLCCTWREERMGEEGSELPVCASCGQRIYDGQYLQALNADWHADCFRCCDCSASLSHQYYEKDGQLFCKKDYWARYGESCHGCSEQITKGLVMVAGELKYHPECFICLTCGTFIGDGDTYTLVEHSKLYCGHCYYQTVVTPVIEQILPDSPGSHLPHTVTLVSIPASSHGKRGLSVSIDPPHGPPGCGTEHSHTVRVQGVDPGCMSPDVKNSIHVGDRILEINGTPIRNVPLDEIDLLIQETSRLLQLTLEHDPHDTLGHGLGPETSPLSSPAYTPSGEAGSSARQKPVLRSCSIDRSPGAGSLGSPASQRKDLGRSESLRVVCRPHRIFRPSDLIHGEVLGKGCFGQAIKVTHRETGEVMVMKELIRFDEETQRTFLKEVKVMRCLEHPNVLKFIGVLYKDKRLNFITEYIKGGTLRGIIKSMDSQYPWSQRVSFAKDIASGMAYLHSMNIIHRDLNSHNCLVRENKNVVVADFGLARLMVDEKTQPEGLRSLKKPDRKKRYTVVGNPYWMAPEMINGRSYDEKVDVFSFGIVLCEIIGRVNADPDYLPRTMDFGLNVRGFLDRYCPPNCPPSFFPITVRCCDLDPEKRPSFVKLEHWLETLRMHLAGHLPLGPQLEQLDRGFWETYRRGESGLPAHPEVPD
UniProt P11309, whole entry, looked up: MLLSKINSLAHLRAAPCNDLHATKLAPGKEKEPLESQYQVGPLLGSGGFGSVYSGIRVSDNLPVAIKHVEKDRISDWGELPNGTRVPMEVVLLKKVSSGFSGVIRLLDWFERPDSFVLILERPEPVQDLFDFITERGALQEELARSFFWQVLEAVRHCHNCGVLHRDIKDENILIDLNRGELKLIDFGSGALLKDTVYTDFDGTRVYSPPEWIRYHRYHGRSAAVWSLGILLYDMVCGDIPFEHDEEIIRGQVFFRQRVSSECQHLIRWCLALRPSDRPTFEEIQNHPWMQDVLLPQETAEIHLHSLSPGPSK

Tests used:
[1] = target: Vascular endothelial growth factor receptor 1 (Homo sapiens) (UniProt P17948); experiment: Inhibition of VEGFR1 (unknown origin) at 1 uM relative to control
[2] = target: Aurora kinase A (Homo sapiens) (UniProt O14965); experiment: Inhibition of Aurora A (unknown origin) at 1 uM relative to control
[3] = target: Serine/threonine-protein kinase PLK4 (Homo sapiens) (UniProt O00444); experiment: Inhibition of PLK4 (unknown origin) at 1 uM relative to control
[4] = target: Serine/threonine-protein kinase 25 (Homo sapiens) (UniProt O00506); experiment: Inhibition of STK25 (unknown origin) at 1 uM relative to control
[5] = target: Serine/threonine-protein kinase PAK 1 (Homo sapiens) (UniProt Q13153); experiment: Inhibition of PAK1 (unknown origin) at 1 uM relative to control
[6] = target: Tyrosine-protein kinase BTK (Homo sapiens) (UniProt Q06187); experiment: Inhibition of BTK (unknown origin) at 1 uM relative to control
[7] = target: Serine/threonine-protein kinase TBK1 (Homo sapiens) (UniProt Q9UHD2); experiment: Inhibition of TBK1 (unknown origin) at 1 uM relative to control
[8] = target: Mitogen-activated protein kinase 1 (Homo sapiens) (UniProt P28482); experiment: Inhibition of ERK2 (unknown origin) at 1 uM relative to control
[9] = target: Serine/threonine-protein kinase Nek1 (Homo sapiens) (UniProt Q96PY6); experiment: Inhibition of NEK1 (unknown origin) at 1 uM relative to control
[10] = target: Serine/threonine-protein kinase 16 (Homo sapiens) (UniProt O75716); experiment: Inhibition of PKL12 (unknown origin) at 1 uM relative to control
[11] = target: Maternal embryonic leucine zipper kinase (Homo sapiens) (UniProt Q14680); experiment: Inhibition of MELK (unknown origin) at 1 uM relative to control
[12] = target: ALK tyrosine kinase receptor (Homo sapiens) (UniProt Q9UM73); experiment: Inhibition of ALK (unknown origin) at 1 uM relative to control
[13] = target: Angiopoietin-1 receptor (Homo sapiens) (UniProt Q02763); experiment: Inhibition of TEK (unknown origin) at 1 uM relative to control
[14] = target: Serine/threonine-protein kinase Chk2 (Homo sapiens) (UniProt O96017); experiment: Inhibition of CHK2 (unknown origin) at 1 uM relative to control
[15] = target: Protein kinase C alpha type (Homo sapiens) (UniProt P17252); experiment: Inhibition of PRKCA (unknown origin) at 1 uM relative to control
[16] = target: Tyrosine-protein kinase JAK1 (Homo sapiens) (UniProt P23458); experiment: Inhibition of JAK1 (unknown origin) at 1 uM relative to control
[17] = target: LIM domain kinase 1 (Homo sapiens) (UniProt P53667); experiment: Inhibition of LIMK1 (unknown origin) at 1 uM relative to control
[18] = target: Dual specificity mitogen-activated protein kinase kinase 1 (Homo sapiens) (UniProt Q02750); experiment: Inhibition of MEK1 (unknown origin) at 1 uM relative to control
[19] = target: Misshapen-like kinase 1 (Homo sapiens) (UniProt Q8N4C8); experiment: Inhibition of MINK1 (unknown origin) at 1 uM relative to control
[20] = target: Serine/threonine-protein kinase B-raf (Homo sapiens) (UniProt P15056); experiment: Inhibition of BRAF (unknown origin) at 1 uM relative to control
[21] = target: Cyclin-dependent kinase 1 (Homo sapiens) (UniProt P06493); experiment: Inhibition of CDK1 (unknown origin) at 1 uM relative to control
[22] = target: Serine/threonine-protein kinase pim-1 (Homo sapiens) (UniProt P11309); experiment: Inhibition of PIM1 (unknown origin) at 1 uM relative to control
[23] = target: Epidermal growth factor receptor (Homo sapiens) (UniProt P00533); experiment: Inhibition of EGFR (unknown origin) at 1 uM relative to control
[24] = target: RAF proto-oncogene serine/threonine-protein kinase (Homo sapiens) (UniProt P04049); experiment: Inhibition of RAF1 (unknown origin) at 1 uM relative to control
[25] = target: Epithelial discoidin domain-containing receptor 1 (Homo sapiens) (UniProt Q08345); experiment: Inhibition of DDR1 (unknown origin) at 1 uM relative to control
[26] = target: Hepatocyte growth factor receptor (Homo sapiens) (UniProt P08581); experiment: Inhibition of cMet (unknown origin) at 1 uM relative to control
[27] = target: Tyrosine-protein kinase Blk (Homo sapiens) (UniProt P51451); experiment: Inhibition of BLK (unknown origin) at 1 uM relative to control
[28] = target: cAMP-dependent protein kinase (PKA) (Homo sapiens) (UniProt P22694+P17612+P22612); experiment: Inhibition of PKA (unknown origin) at 1 uM relative to control; type: protein assay

Cc1ccc2c(Nc3cc(C4CC4)[nH]n3)nc(NCc3ccc(F)cc3F)nc2c1
inhibition [1]: 31%
inhibition [2]: 96%
inhibition [3]: 96%
inhibition [4]: 95%
inhibition [5]: 31%
inhibition [6]: 27%
inhibition [7]: 21%
inhibition [8]: 7%
inhibition [9]: 2%
inhibition [10]: 88%
inhibition [11]: 81%
inhibition [12]: 95%
inhibition [13]: 88%
inhibition [14]: 11%
inhibition [15]: 30%
inhibition [16]: 92%
inhibition [17]: 94%
inhibition [18]: 9%
inhibition [19]: 24%
inhibition [20]: 3%
inhibition [21]: 79%
inhibition [22]: 5%
inhibition [23]: 10%
inhibition [24]: 4%
inhibition [25]: 61%
inhibition [26]: 13%
inhibition [27]: 80%
inhibition [28]: 21%
